Series [1] concerns the target Alpha adrenergic receptor (1a and 1d) (Homo sapiens) (UniProt P35348+P25100). As to the kind of experiment: Ratio of binding affinities for human cloned alpha1D- adrenoceptor to that of human cloned alpha1A- adrenoceptor (alpha-1D/alpha-1A). In kind it is protein assay. The method in brief:
(§1)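 Ratio of α1B (or α1D) to α1A binding affinity, calculated from pKi values for [3H]-prazosin displacement at cloned human subtypes expressed in CHO-K1 membranes or whole cells.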

By UniProt entry, the sequences of proteins in these tests, tags left out.
UniProt P25100, whole entry, looked up: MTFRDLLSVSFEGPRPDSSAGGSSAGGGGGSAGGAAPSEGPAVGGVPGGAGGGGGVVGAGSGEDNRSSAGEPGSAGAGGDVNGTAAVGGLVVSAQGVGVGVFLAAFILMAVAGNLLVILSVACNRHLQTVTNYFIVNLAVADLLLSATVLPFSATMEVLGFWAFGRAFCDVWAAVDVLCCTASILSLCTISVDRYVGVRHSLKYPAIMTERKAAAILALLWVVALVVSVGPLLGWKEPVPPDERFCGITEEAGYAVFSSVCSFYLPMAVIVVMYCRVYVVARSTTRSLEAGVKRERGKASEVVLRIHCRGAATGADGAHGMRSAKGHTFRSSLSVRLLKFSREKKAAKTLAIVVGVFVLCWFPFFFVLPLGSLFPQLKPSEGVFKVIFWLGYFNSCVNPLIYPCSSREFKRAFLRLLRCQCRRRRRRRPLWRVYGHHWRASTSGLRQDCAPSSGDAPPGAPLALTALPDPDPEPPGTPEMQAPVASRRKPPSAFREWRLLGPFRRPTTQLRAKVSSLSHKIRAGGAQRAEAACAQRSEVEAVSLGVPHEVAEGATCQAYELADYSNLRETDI
UniProt P23944, whole entry: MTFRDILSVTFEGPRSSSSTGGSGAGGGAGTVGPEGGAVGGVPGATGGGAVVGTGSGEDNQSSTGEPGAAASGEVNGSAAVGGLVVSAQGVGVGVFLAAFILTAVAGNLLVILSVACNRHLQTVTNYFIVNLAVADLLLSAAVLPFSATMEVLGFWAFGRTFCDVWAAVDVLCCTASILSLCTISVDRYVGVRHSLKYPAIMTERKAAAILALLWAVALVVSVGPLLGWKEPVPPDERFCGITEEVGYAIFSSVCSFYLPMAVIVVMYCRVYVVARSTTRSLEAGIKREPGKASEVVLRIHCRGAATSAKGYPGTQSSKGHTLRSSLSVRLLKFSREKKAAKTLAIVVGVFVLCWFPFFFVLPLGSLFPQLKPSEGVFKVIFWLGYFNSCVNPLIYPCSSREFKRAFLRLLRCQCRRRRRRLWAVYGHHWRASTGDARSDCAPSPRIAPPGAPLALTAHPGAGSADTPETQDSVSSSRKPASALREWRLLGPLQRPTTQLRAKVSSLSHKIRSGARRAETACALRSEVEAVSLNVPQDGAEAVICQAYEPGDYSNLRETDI

Series [2] concerns the target Alpha-1D adrenergic receptor (Rattus norvegicus) (UniProt P23944). As to the kind of experiment: Antagonist inhibition noradrenaline-stimulated contractions of rat aortic strings for Alpha-1D adrenergic receptor. The class given is functional.
The target of series [3] is Adrenergic receptors; alpha-1 A & B (Homo sapiens) (UniProt P35348+P35368). As to the kind of experiment: Ratio of binding affinities for human cloned alpha1B- adrenoceptor to that of human cloned alpha1A- adrenoceptor (alpha-1B/alpha-1A). In kind it is protein assay. In a few lines: as §1
Series [4] has as its system Alpha-1D/alpha-1A adrenergic receptors (rat/rabbit). As to the kind of experiment: Ratio of antagonistic activities against alpha-1D vs alpha-1A determined in rat aorta and rabbit bladder neck respectively.
In series [5] the test system is Alpha-1A adrenergic receptor (Oryctolagus cuniculus). As to the kind of experiment: Antagonist inhibition of noradrenaline-stimulated contractions of rabbit bladderneck (RBN) for Alpha-1A adrenergic receptor.
For a further series, the species on record is Canis familiaris. As to the kind of experiment: In vitro relative rate of metabolism was determined in dog liver microsomes. In kind it is ADME, Canis lupus familiaris.
Series [6] deals with T1, Alpha-1A adrenergic receptor (Homo sapiens, UniProt P35348).
T1 sequence (P35348 whole entry): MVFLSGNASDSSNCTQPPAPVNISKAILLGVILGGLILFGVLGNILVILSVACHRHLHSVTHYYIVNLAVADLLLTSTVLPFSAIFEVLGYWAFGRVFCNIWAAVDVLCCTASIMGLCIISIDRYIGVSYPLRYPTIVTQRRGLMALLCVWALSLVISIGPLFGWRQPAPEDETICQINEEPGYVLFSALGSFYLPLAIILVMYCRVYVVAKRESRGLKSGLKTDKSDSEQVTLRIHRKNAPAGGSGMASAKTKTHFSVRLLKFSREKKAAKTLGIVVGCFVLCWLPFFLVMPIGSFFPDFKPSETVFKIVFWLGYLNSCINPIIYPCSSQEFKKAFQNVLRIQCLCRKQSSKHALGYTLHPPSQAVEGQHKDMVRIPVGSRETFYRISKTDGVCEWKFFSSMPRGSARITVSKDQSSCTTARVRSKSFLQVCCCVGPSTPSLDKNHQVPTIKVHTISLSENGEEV
As to the kind of experiment: Inhibition of [3H]prazosin binding to CHO-K1 whole cells expressing human cloned Alpha-1A adrenergic receptor. The class given is cell-based.

Regarding `Cc1cn(CCCN2CCN(c3ccccc3OCC(F)(F)F)CC2)c(=O)[nH]c1=O`, the Ratio in series [1] worked out at 10; in series [3] it was 50; in series [4], 25. The pA2/pKB in series [2] is 7.1; in series [5], 8.5.

Take `Cc1c[nH]c(=O)n(CCN2CCN(c3ccc(F)cc3OCC(F)(F)F)CC2)c1=O`: the Ratio is 5 in series [1], 32 in series [3] and 2.9 in series [4]. The pA2/pKB in series [2] is 8; in series [5] it was 8.5.

Regarding `CN(C)c1c[nH]c(=O)n(CCCN2CCN(c3ccc(F)cc3OCC(F)(F)F)CC2)c1=O`, in the series filed under Canis familiaris, the Relative rate metabolism is 0.4. Further, the Ratio stood at 16 in series [1], 32 in series [3] and 63 in series [4]. Besides, the affinity in series [6], expressed as Ki, was 6.31 nM. Further, the figures for the pA2/pKB in series [2] and in series [5] were 6.4 and 8.2, respectively.

`COc1c[nH]c(=O)n(CCCN2CCN(c3ccc(F)cc3OCC(F)(F)F)CC2)c1=O`: in the series filed under Canis familiaris, the Relative rate metabolism amounted to 0.2. Also, the values for the Ratio in series [1], in series [3] and in series [4] were 20, 100 and 100, respectively. For the same compound, the Ki (in general, a measure of affinity in units of concentration, obtained from inhibition or displacement) in series [6] is 1.58 nM. In addition, the results for the pA2/pKB in series [2] and in series [5] were 6.8 and 8.8, respectively.

In the case of `Cc1c[nH]c(=O)n(CCCN2CCN(c3ccc(F)cc3OCC(F)(F)F)CC2)c1=O`, the Relative rate metabolism in the series listed under Canis familiaris worked out at 0.6. Also, the Ratio in series [1] turned out to be 50; in series [3], 63; in series [4], 126. Further, the Ki in series [6] was 1.26 nM. The figures for the pA2/pKB in series [2] and in series [5] were 6.8 and 8.9, respectively.

As for `Cc1n[nH]c(=O)n(CCCN2CCN(c3ccccc3OCC(F)(F)F)CC2)c1=O`, the values for the Ratio in series [1], in series [3] and in series [4] were 25, 126 and 10, respectively. Also, the figures for the pA2/pKB in series [2] and in series [5] were 7.7 and 8.7, respectively.

With `Cc1c[nH]c(=O)n(CC(C)(C)CN2CCN(c3ccccc3OCC(F)(F)F)CC2)c1=O`, the results for the Ratio in series [1], in series [3] and in series [4] were 32, 100 and 32, respectively. For the same compound, the pA2/pKB in series [2] turned out to be 6.3; in series [5] it was 7.8.

Turning to `Cc1cc(=O)n(CCCN2CCN(c3ccc(F)cc3OCC(F)(F)F)CC2)c(=O)[nH]1`, the Ratio was 50 in series [1], 158 in series [3] and 50 in series [4]. The figures for the pA2/pKB in series [2] and in series [5] were 7.3 and 8.7, respectively.

These data come from ChEMBL document CHEMBL1136516, “Synthesis, pharmacology and pharmacokinetics of 3-(4-aryl-piperazin-1-ylalkyl)-uracils as uroselective alpha1A-antagonists” (Bioorg Med Chem Lett, 2003).
